Assay results reported in ChEMBL document CHEMBL4145507, “Design, synthesis and biological evaluation of novel indole-benzimidazole hybrids targeting estrogen receptor alpha (ER-α)” (Eur J Med Chem, 2018).

System: T47D
Assay: Antiproliferative activity against human T47D cells after 48 hrs by MTT assay
Assay type: functional, cell-based

Question: How did the Activity turn out when Cc1cc(C)c2nc(-c3cc4ccccc4n3Cc3ccccc3)[nH]c2c1 was run?
Answer: Dose-dependent effect

Question: For Brc1ccc2[nH]c(-c3cc4ccccc4n3Cc3ccccc3)nc2c1, which Activity is on record?
Answer: Dose-dependent effect

Question: Which Activity does the source give for c1ccc(Cn2c(-c3nc4cc5ccccc5cc4[nH]3)cc3ccccc32)cc1 here?
Answer: Dose-dependent effect

Question: Which Activity does the source give for Cc1cc(C)c2nc(-c3cc4ccccc4[nH]3)[nH]c2c1 here?
Answer: Dose-dependent effect

Question: With c1ccc2cc3[nH]c(-c4cc5ccccc5[nH]4)nc3cc2c1 as the molecule, how does the Activity read?
Answer: Dose-dependent effect

Question: How did the Activity turn out when Brc1ccc2[nH]c(-c3cc4ccccc4[nH]3)nc2c1 was run?
Answer: Dose-dependent effect

Question: BrC1=CN2NC(c3cc4ccccc4[nH]3)=NC2N=C1 (centres undefined) was tested. Which Activity did it give?
Answer: Dose-dependent effect

Question: Brc1cnc2[nH]c(-c3cc4ccccc4[nH]3)nc2c1 was tested. Which Activity did it give?
Answer: Dose-dependent effect

Question: Cc1cccc2[nH]c(-c3cc4ccccc4[nH]3)nc12 was tested. Which Activity did it give?
Answer: Dose-dependent effect

Question: With Clc1cc2nc(-c3cc4ccccc4n3Cc3ccccc3)[nH]c2cc1Cl as the molecule, how does the Activity read?
Answer: Dose-dependent effect

Question: Which Activity does the source give for c1ccc2[nH]c(C3=Nc4cccc5cccc(c45)N3)cc2c1 here?
Answer: Dose-dependent effect

Question: For Clc1cc2nc(-c3cc4ccccc4[nH]3)[nH]c2cc1Cl, which Activity is on record?
Answer: Dose-dependent effect

Question: c1ccc(Cn2c(-c3nc4ccccc4[nH]3)cc3ccccc32)cc1 was tested. Which Activity did it give?
Answer: Dose-dependent effect

Question: Which Activity does the source give for c1ccc2[nH]c(-c3nc4ccccc4[nH]3)cc2c1 here?
Answer: Dose-dependent effect
